## Yeast mating assay 1: variants of the scFv Ab-14

Binding partner: SARS-CoV-2 spike HR2 peptide, sequence PDVDLGDISGINAS.

Each scFv is VH, a (GGGGS)3 linker, VL, as in the parent Ab-14, and differs from it in the CDRs of the heavy chain only.
VH: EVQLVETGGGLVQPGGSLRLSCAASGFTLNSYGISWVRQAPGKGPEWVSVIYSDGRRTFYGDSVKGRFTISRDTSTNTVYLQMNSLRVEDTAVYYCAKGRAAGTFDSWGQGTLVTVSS
VL: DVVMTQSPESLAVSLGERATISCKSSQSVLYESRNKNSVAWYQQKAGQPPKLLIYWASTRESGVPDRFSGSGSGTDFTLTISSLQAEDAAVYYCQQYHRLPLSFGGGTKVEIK

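AAYL49 was designed without a model: most single CDR substitutions and a random sample of double and triple ones. In AlphaSeq, yeast of one mating type display the scFv and yeast of the other type display the target. Binding brings cells together so that they mate, and sequencing counts the barcode pairs among the diploids. The ratio of observed to expected reads was calibrated, replicate by replicate, on BCL2-family standards whose Kd was known from biolayer interferometry. Each pool was mated in three replicate cultures.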

Substitutions are numbered in sequence along the VH above, starting at 1 (not Kabat). Every variant below is changed at Y32 of the VH (sequential numbering). Kd is apparent (estimated from mating counts) and averaged on the log scale over replicates with a signal. Smaller is tighter. "nd" marks a missing value. The strain was present, yet no cells mated with the target were sequenced in any replicate, which points to weak or no binding. As a blank, each scFv also met three strains without target: over library AAYL49, 15% of these pairings were detected, typically at 11 µM and seldom below 680 nM. In this assay the parent's reference entry averaged 4.4 nM; its copy inside this library read 13 µM (one replicate of three).

L29K+Y32M+G55L: nd (0 of 3 replicates).
Y32D+G55Q+F105W: nd (0 of 3 replicates).
Y32A+Y52H+D54Q: 6.3 µM (1 of 3 replicates).
Y32V+S53P+Y60I: 36 µM (1 of 3 replicates).
Y32V+Y60M+D62W: 9.2 µM (1 of 3 replicates).
Y32P+G61P+T104K: 7.2 µM (1 of 3 replicates).
Y32K+T104N: 93 nM (1 of 3 replicates).
Y32F+Y52I+V64R: nd (0 of 3 replicates).
Y32P+S35Q: nd (0 of 3 replicates).
S31A+Y32W+S107F: 780 nM (2 of 3 replicates).
Y32H+I51P: 16 µM (3 of 3 replicates).
Y32R+T58R+A102V: nd (0 of 3 replicates).
Y32N+G99V+A101D: nd (0 of 3 replicates).
Y32A+G33P+F105H: 14 µM (3 of 3 replicates).
Y32P+I34K: nd (0 of 3 replicates).
Y32A+I51P: 160 µM (3 of 3 replicates).
Y32A+F59H+A101G: 44 µM (1 of 3 replicates).
S31M+Y32H+G103E: nd (0 of 3 replicates).
Y32M+D54T+F105R: nd (0 of 3 replicates).
Y32V+R57N+G99D: nd (0 of 3 replicates).
L29T+Y32R+S35Y: nd (0 of 3 replicates).
Y32L+S35G+T58G: 7.1 µM (1 of 3 replicates).
Y32Q+T104L+D106N: nd (0 of 3 replicates).
Y32P+I51P+A102G: nd (0 of 3 replicates).
F27L+Y32C+V50L: 14 µM (1 of 3 replicates).
Y32S+S35E+Y52W: nd (0 of 3 replicates).
Y32E: 14 nM (3 of 3 replicates).
Y32F+V64T+G99T: nd (0 of 3 replicates).
G26I+Y32T+R100G: 310 µM (1 of 3 replicates).
Y32M+G99D+S107C: 8.2 µM (2 of 3 replicates).
Y32F+T58K+F59N: 8.6 µM (2 of 3 replicates).
Y32H+D54G+R56F: nd (0 of 3 replicates).
Y32W+D54A+F105K: nd (0 of 3 replicates).
F27Y+Y32I+T104H: nd (0 of 3 replicates).
Y32D+S35I+D54V: nd (0 of 3 replicates).
Y32E+R57G+S63I: nd (0 of 3 replicates).
Y32S+T58P+S63T: 130 µM (1 of 3 replicates).
Y32C+D62Q: 3.9 µM (2 of 3 replicates).
S31C+Y32H+I51T: nd (0 of 3 replicates).
F27D+Y32M+G99M: 560 nM (3 of 3 replicates).
Y32T+R57K+T104R: nd (0 of 3 replicates).
S31T+Y32V+R56A: 42 nM (2 of 3 replicates).
Y32Q+G33L: nd (0 of 3 replicates).
Y32F+G61E+K65F: 1.0 µM (3 of 3 replicates).
T28N+Y32F: 3.7 nM (3 of 3 replicates).
Y32M+G55A+R57T: nd (0 of 3 replicates).
Y32Q+G55K+F59T: 12 µM (1 of 3 replicates).
N30V+Y32V+Y60H: nd (0 of 3 replicates).
Y32F+G99S+A102V: 62 nM (3 of 3 replicates).
T28M+Y32C+F59K: nd (0 of 3 replicates).
F27C+T28G+Y32L: 5.1 µM (2 of 3 replicates).

A selection of 6 entries from above:

Variant F27L+Y32C+V50L gave 14 µM (1 of 3 replicates).
Variant Y32V+Y60M+D62W gave 9.2 µM (1 of 3 replicates).
Variant F27C+T28G+Y32L gave 5.1 µM (2 of 3 replicates).
Variant Y32A+F59H+A101G gave 44 µM (1 of 3 replicates).
Variant Y32F+T58K+F59N gave 8.6 µM (2 of 3 replicates).
Variant F27Y+Y32I+T104H gave nd (0 of 3 replicates).

Values reported by Engelhart et al. 2022, doi:10.1038/s41597-022-01779-4 (FLAb copy).